Experimental data published in patent publication US20070010446A1, “METHODS FOR TREATING INFLAMMATION USING THYROID STIMULATING HORMONE” (ZymoGenetics, Inc., priority 2003, published 2007).

Experiments:
C57BL/6 mice [1] = assay: Delayed Type Hypersensitivity (DTH), OVA ear challenge; format: in vivo; conditions: for CHANGE IN EAR THICKNESS, LEFT EAR (PBS) / CHANGE IN EAR THICKNESS, RIGHT EAR (OVA): TSH 2.0 mg/kg
thymus = conditions: mouse, in vivo
NCI-H295R cells = assay: CRE-luciferase reporter assay of cAMP-mediated gene induction in adrenal cortex cells; format: cell-based, human
From the text: Summary: A human adrenal cortex cell line, NCI-H295R, was used to study signal transduction of TSH. NCI-H295R was transduced with recombinant adenovirus containing a reporter construct, a firefly luciferase gene under the control of cAMP response element (CRE) enhancer sequences. This assay system detects cAMP-mediated gene induction downstream of activation of Gs-coupled GPCR's (G-protein coupled receptors). […] Typically, TSH elicited a maximal response of 15-25-fold luciferase induction above control media.
NCI-H295R cells were obtained from the ATCC(CRL-2128, Manassas, Va.) and cultured in growth medium as follows: 1:1 mixture of Dulbecco's modified Eagle's medium and Ham's F12 medium with L-glutamine (D-MEM/F-12; GIBCO, cat.# 11320-033) containing 25 mM HEPES buffer (GIBCO, Invitrogen, Carlsbad, Calif., cat.# 15630-080), 1 mM sodium pyruvate (GIBCO, cat.# 11360-070), 1% ITS+1 media supplement (Sigma St. Louis, Mo. cat# 12521) and 2.5% Nu-Serum I (BD Biosciences, Lexington, Ky. cat.#355100). Cells were cultured at 37° C. in a 5% CO2 humidified incubator. […]
Promega's Luciferase Assay System (Promega, Madison, Wis., cat. # E1500) was used to process the treated cells. […] Luciferase activity was measured on a microplate luminometer (PerkinElmer Life Sciences, Inc., model LB 96V2R) following automated injection of luciferase assay substrate.

C57BL/6 mice [2] = assay: LPS-induced mild endotoxemia mouse model, serum cytokines by ELISA; format: in vivo
Protocol: The LPS-induced mild endotoxemia model is an in vivo model designed to mimic acute endotoxemia/sepsis by challenging mice with a low, non-lethal dose of bacterial endotoxin (lipopolysaccharide, LPS). Serum is collected at various timepoints (1-72 hours) after intraperitoneal LPS injection and analyzed for altered expression of a wide variety of pro- and anti-inflammatory cytokines and acute phase proteins that mediate the inflammatory response. The model provides a means to assess the potential anti-inflammatory effects of therapeutic candidates during a robust inflammatory response.
In this model, an initial experiment is run to determine the production of proinflammatory cytokines in response to an injection of LPS. For example, six-month old Balb/c (Charles River Laboratories, Wilmington, Mass.) female mice are injected with 25 μg LPS (Sigma) in sterile PBS intraperitoneally (i.p.). Serum samples are collected at 0, 1, 4, 8, 16, 24, 48 and 72 hours later, and are assayed for serum levels of inflammatory mediators, such as IL-1β, IL-6, TNFα, and IL-10. Commercially available ELISA kits (Biosource International, Camarillo, Calif.) can be used to deterime the serum levels. In this assay TNFα levels and IL-1β levels can be measured at 1 hour post-LPS injection, and IL-6, IL-10 and IL-10 can be measured at 4 hours post injection. From these inflammatory mediators, one or more is chosen as a representative biological marker(s) for the LPS model of mild endotoxemia.
Next, C57BL/6 mice (Charles River Laboratories; 5 mice/group) are treated i.p. with PBS, or the test compound in PBS 1 hour prior to LPS challenge. The mice are then challenged with 25 ug of LPS i.p. and are bled at 1 hour and 4 hours after LPS injection. The level of the representative biological marker(s) is analyzed by ELISA.
Suppression of the production of the pro-inflammatory cytokines (for example, TNFα) while enhancement of the expression of anti-inflammatory cytokines (for example, IL-6) will show the anti-inflammatory effects of the test compound. […]

[3] = tested on: human PBMC, lymphoid cells; assay: TSH-biotin binding by flow cytometry (SA-PE staining); conditions: TSH-biotin 10 ug/ml
[4] = Expt 1 (n = 8), treatment i.p. at challenge (d 7), two hours prior, Dex 1.5 mg/kg, 24 hours after challenge
[5] = Expt 2 (n = 7), treatment i.p. once a day at sensitization (d 0-4), Dex 1.5 mg/kg, challenge day 7, measured day 8
[6] = Expt 3 (n = 7), adrenalectomized (ADX) mice, treatment i.p. at challenge (d 7), Dex 1.5 mg/kg

TSH: heterodimeric protein hormone; alpha subunit SEQ ID NO:3 and beta subunit SEQ ID NO:6, non-covalently associated
CHANGE IN EAR THICKNESS, LEFT EAR (PBS) (C57BL/6 mice [1]; [4]): 0.21 +/− 1.29 ×10^−3 inch | CHANGE IN EAR THICKNESS, RIGHT EAR (OVA) (C57BL/6 mice [1]; [4]): 3.98 +/− 1.00 ×10^−3 inch | DTH reaction, ear thickness vs PBS controls (in words) (C57BL/6 mice [1]; Expt 1, treatment i.p. two hours prior to OVA re-challenge, Dex 1.5 mg/kg, TSH 2 mg/kg): lesser degree of ear thickness compared to controls | CHANGE IN EAR THICKNESS, LEFT EAR (PBS) (C57BL/6 mice [1]; [5]): 1.26 +/− 0.99 ×10^−3 inch | CHANGE IN EAR THICKNESS, RIGHT EAR (OVA) (C57BL/6 mice [1]; [5]): 6.07 +/− 0.67 ×10^−3 inch | DTH reaction (in words) (C57BL/6 mice [1]; Expt 2, treatment i.p. once a day days 0 to 4 (sensitization phase)): significantly inhibited the DTH reaction | CHANGE IN EAR THICKNESS, LEFT EAR (PBS) (C57BL/6 mice [1]; [6]): 0.14 +/− 0.50 ×10^−3 inch | CHANGE IN EAR THICKNESS, RIGHT EAR (OVA) (C57BL/6 mice [1]; [6]): 4.81 +/− 1.31 ×10^−3 inch | ear swelling in response to OVA re-challenge (in words) (C57BL/6 mice [1]; Expt 3, adrenalectomized (ADX) mice): reduced ear swelling | relative proportion of each thymocyte subset (CD4 SP, CD8 SP, CD4+CD8+, CD4−CD8−) (thymus): not significantly different from that of the PBS-treated group | thymic atrophy (in words) (thymus): neither the thymus weight nor the overall thymocyte cell counts were significantly affected | maximal response, luciferase induction above control media (NCI-H295R cells; NCI-H295R transduced with CRE-luciferase reporter, four hours incubation with purified TSH heterodimer): 15-25 fold | induction of luciferase activity (in words) (NCI-H295R cells; NCI-H295R with CRE-luciferase reporter, compared with 10 μM forskolin): dose-dependent induction of luciferase activity equal to or higher than that induced by 10 μM forskolin | anti-inflammatory effect in LPS model (in words) (C57BL/6 mice [2]; TSH 2 mg/kg in PBS, TNFα suppression and IL-6 enhancement): has anti-inflammatory effects in this model | TNFα (1 hr) +/− S.E. (C57BL/6 mice [2]; serum 1 hour after 25 ug LPS i.p., treatment i.p. 1 hour prior, Dex 0.015 mg/kg, TSH 2.0 mg/kg, Thyroxine 0.05 mg/kg, PBS group 6990.8): 4345.5 ± 385.2 pg/mL | IL-6 (4 hr) +/− S.E. (C57BL/6 mice [2]; serum 4 hours after 25 ug LPS i.p., treatment i.p. 1 hour prior, Dex 0.015 mg/kg, TSH 2.0 mg/kg, Thyroxine 0.05 mg/kg, PBS group 45.6): 73.1 ± 11.2 ng/mL | binding to lymphoid cells (in words) [3]: absence of such staining
